{
  "sequences": {"note": "By UniProt entry, the sequences of proteins in these tests, tags left out.", "UniProt Q8N884, whole entry": "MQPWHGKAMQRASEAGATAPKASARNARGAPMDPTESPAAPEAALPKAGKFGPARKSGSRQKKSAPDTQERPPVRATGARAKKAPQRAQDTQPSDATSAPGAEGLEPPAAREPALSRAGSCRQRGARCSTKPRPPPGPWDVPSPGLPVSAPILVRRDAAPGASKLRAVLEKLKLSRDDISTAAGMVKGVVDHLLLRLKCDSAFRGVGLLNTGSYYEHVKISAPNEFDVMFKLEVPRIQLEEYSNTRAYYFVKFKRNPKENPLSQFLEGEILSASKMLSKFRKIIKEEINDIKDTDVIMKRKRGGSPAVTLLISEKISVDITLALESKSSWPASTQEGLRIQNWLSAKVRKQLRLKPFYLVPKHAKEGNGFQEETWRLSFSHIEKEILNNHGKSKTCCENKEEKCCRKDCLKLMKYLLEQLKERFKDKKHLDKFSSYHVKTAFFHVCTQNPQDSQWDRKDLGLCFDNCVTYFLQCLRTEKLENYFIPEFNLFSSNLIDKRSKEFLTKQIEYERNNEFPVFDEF"},
  "source": "paper PMC7704945",
  "test_in_all_cases": "SPR",
  "key": {"[1]": {"target": "biotin-Avi-His6-SUMO full-length human cGAS (human) (UniProt Q8N884)"}, "[2]": {"target": "human cGAS full-length (Homo sapiens) (UniProt Q8N884)"}, "[3]": {"test_system": "human cGAS catalytic domain (Homo sapiens)"}},
  "data": [
    {"substance": "in vitro reconstituted human nucleosome (H2A, H2B, H3-C110A, H4, Widom 601 DNA) (from UniProt P04908;P06899;P62805) (complex)", "values": [
      {"measurement": "Kd", "setting": "[1]", "value": 8.6, "unit": "nM"}
    ]},
    {"substance": "nucleosomes purified from HEK 293T cells (from UniProt P04908;P06899;P68431;P62805) (complex)", "values": [
      {"measurement": "Kd", "setting": "[1]", "value": 6.3, "unit": "nM"}
    ]},
    {"substance": "mononucleosomes purified from HEK 293T", "values": [
      {"measurement": "Kd", "setting": "[2]", "value": 6.3, "unit": "nM"}
    ]},
    {"substance": "reconstituted human nucleosome, Widom 601", "values": [
      {"measurement": "Kd", "setting": "[2]", "value": 8.6, "unit": "nM"},
      {"measurement": "Kd", "setting": "[3]", "value": 2.9, "unit": "nM"}
    ]}
  ]
}
